miR-21 reporter: raises the signal of a miR-21 reporter | AID 2288 | 340,000 tested, under 10 active | Potency, µM (series often up to 38.3 µM), without a hit: at the highest dose reporter change, positive = more light | HeLa miR-21 FLuc reporter, luciferase, 48 h; active = well fitted rising curve with a large enough effect; inconclusive = small, poorly fitted or top-dose-only effect; inactive = no such curve, though single readings can be large or run the other way;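 further: % of control where 0% means no effect; miR-21 action dims this reporter so a rising signal means less miR-21 action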
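Using DMEM plus 10% FBS, HeLa miR-21-FLuc cells are incubated with test compounds (final up to about 40uM) for 48 hours; firefly luciferase signal is then imaged following reagent-mediated lysis.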
RXFP1 agonist: activates the human relaxin receptor RXFP1; Q9HBX9; HEK293T-RXFP1 cAMP TR-FRET, 30 min; response scale: percent of porcine relaxin response, buffer zero; Potency, µM (series often up to 57.5 µM), for inactives: at the top dose activation, hits mostly activators; 370,000 compounds, 0.3% hits; AID 2676; note: potency is the fitted concentration of half-maximal effect; % is set by controls: 0 for no effect and ±100 for the full control effect; nearly all actives have a fitted effect of over 60% in size
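Agonist response is measured as cAMP accumulation in an RXFP1-transfected HEK293T line under PDE4 inhibition. Values are scaled between buffer-only and 29 nM porcine relaxin, and EC50s come from standard Hill equation fits.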
PKM2 activator: activators of human pyruvate kinase M2; purified PKM2, Kinase-Glo ATP luminescence, activation; response scale: 0% is enzyme alone, no compound; Potency, µM (highest dose often 57.5 µM), without a hit: at the top dose activation, hits mostly activators; 260,000 compounds, 0.34% hits; P14618; note: potency is the fitted concentration of half-maximal effect; % is set by controls: 0 for no effect and ±100 for the full control effect; nearly all actives have a fitted effect of over 55% in size
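Purified hPK-M2 (>95%) run at intermediate activity with 0.1 mM ADP and 0.5 mM PEP in 50 mM imidazole pH 7.2, KCl, MgCl2; 1 h room temperature. ATP formed read by Kinase-Glo luminescence; normalized to uninhibited and no-enzyme controls.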
KinaseGlo FLuc: blocks Kinase-Glo luciferase, a counter-screen artifact | Q27757 | Kinase-Glo luciferase, ATP luminescence, 8 min | Potency, µM (top dose mostly 38.3 µM), for inactives: top-dose activity change, negative = inhibition, usual class: inhibitors | 200,000 compounds, 0.28% hits | AID 1379; note: potency is the fitted concentration of half-maximal effect; % is set by controls: 0 for no effect and ±100 for the full control effect; nearly all actives have a fitted effect of over 60% in size
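Substrate mix (final 50 mM imidazole pH 7.2, 50 mM KCl, 7 mM MgCl2, 10 uM ATP, 0.01% Tween 20, 0.05% BSA) plus pin-tool compound, then Kinase-Glo detection mix; 8 min ambient, luminescence read.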
RXFP1 antag: antagonists of human relaxin receptor RXFP1; 350,000 compounds, 0.59% hits; HEK293-RXFP1, relaxin-stimulated cAMP HTRF, 30 min; hits give low values; activity change, negative = inhibition, % at 57.5 µM; Q9HBX9; AID 1259400;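 active = activity change of -60% or lower, but not beyond a set lower limit; inconclusive = change between -60% and -40%, or beyond the set limit; inactive = change above -40%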; note: % is set by controls: 0 for no effect and ±100 for the full control effect
GALK inh: galactokinase (human) inhibition. P51570. Purified GALK, Kinase-Glo residual ATP luminescence. Potency, µM (highest dose often 57.5 µM), without a hit: at the highest dose activity change, negative = inhibition, hits mostly inhibitors. 270,000 compounds, 0.007% hits; note: potency is the fitted concentration of half-maximal effect; % is set by controls: 0 for no effect and ±100 for the full control effect
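5 nM enzyme, 35 uM ATP, 100 uM galactose, 20 mM HEPES pH8.0, 5 mM MgCl2; 1 h RT; residual ATP by Kinase-Glo Plus luminescence, qHTS format.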
* marks the source's active call; other numbers are inactive results; [ ] = dose if it differs, or a comment. A selection: hits, their analogues and other compounds. The true share with any hit is near 0.92%. Unless noted, calls come from the whole dose curve; as a rule, active = well fitted curve in the direction sought with a large enough effect; inconclusive = small, poorly fitted or top-dose-only effect, or another doubt; inactive = no such curve, though single readings can be large; an effect the other way counts as inactive or inconclusive.

O=C(NCc1cccs1)C1CCN(S(=O)(=O)c2ccc(Br)s2)CC1 was read as miR-21 reporter -4.5%, RXFP1 agonist 3.3%, PKM2 activator 26.8%, KinaseGlo FLuc -1.0%, RXFP1 antag -5.0 and GALK inh -1.2%.
O=C(NCc1cccs1)[C@@H]1CCCN1S(=O)(=O)c1ccccc1F was read as RXFP1 antag -3.4.
O=C(NCc1cccs1)C1CCN(S(=O)(=O)c2ccccc2F)CC1 was read as miR-21 reporter 4.5%, RXFP1 agonist -0.1%, PKM2 activator 14.1µM*, RXFP1 antag 0.2 and GALK inh -1.6%.
For CC(=O)N1CCc2c(sc(NC(=O)C3CCCN3S(=O)(=O)c3cccs3)c2C(N)=O)C1 (stereo not drawn) the results were RXFP1 agonist 1.1% and RXFP1 antag 0.3.
For CSc1ccc(S(=O)(=O)N2CCC(C(=O)NCc3ccco3)CC2)cc1 the results were miR-21 reporter 7.3%, RXFP1 agonist 0.0%, PKM2 activator 10µM*, RXFP1 antag -14.5 and GALK inh 2.5%.
Screening CC(=O)N1CCc2c(sc(NC(=O)C3CCN(S(=O)(=O)c4cccs4)CC3)c2C(N)=O)C1 returned RXFP1 agonist 0.9% and RXFP1 antag -60.3*.
O=C(NCc1cccs1)C1CCN(S(=O)(=O)c2cccs2)CC1 was read as miR-21 reporter -1.1%, RXFP1 agonist -0.8%, PKM2 activator 15.8µM*, KinaseGlo FLuc 0.1%, RXFP1 antag -22.2 and GALK inh -0.3%.
For CCOC(=O)c1c(S(=O)(=O)N2CCC(C(=O)Nc3cccc(C)n3)CC2)c(C)n(C)c1C the results were miR-21 reporter 7.1%, RXFP1 agonist 0.1% and RXFP1 antag -0.8.
Screening Cc1cccc(S(=O)(=O)c2c(N)n(Cc3ccco3)c3nc4ccccc4nc23)c1 returned miR-21 reporter 8.9%, RXFP1 agonist 1.4%, PKM2 activator 22.4µM*, KinaseGlo FLuc -0.1%, RXFP1 antag -3.4 and GALK inh -4.4%.
For N#CC(C#N)=C1NC2(CCCCC2)Cc2ccccc21 the results were miR-21 reporter 3.4%, RXFP1 agonist 5.1%, PKM2 activator 3.0%, RXFP1 antag -9.3 and GALK inh 1.3%.
`N#CC(C#N)=c1ccc2c(c1)NC1(CCCCC1)N=2` gave miR-21 reporter inconclusive, RXFP1 agonist -13.3%, PKM2 activator -52.3%, KinaseGlo FLuc 12.6µM* and GALK inh 12.4%.
Screening CO/N=C(\CCC(=O)O)c1cccs1 returned miR-21 reporter 1.7%, RXFP1 agonist 5.8%, PKM2 activator -0.2%, RXFP1 antag -3.6 and GALK inh -2.8%.
CCN(CC)CCCNC(=O)c1ccc(-n2c(=O)c(=O)[nH]c3ccccc32)cc1 was read as KinaseGlo FLuc -1.2%.
For Cc1cc2c(cc1S(=O)(=O)Nc1cccc(C)c1C)n(C)c(=O)c(=O)n2C the results were miR-21 reporter -1.0%, RXFP1 agonist 8.9% and PKM2 activator 0.501µM*.
`Cc1cc2c(cc1S(=O)(=O)Nc1ccc(F)cc1)n(C)c(=O)c(=O)n2C` gave miR-21 reporter 4.0%, RXFP1 agonist 5.7%, PKM2 activator 2.51µM* and RXFP1 antag -3.9.
`COc1ccc(-c2nc(-c3ccccc3)oc2Nc2c(C)cccc2C)cc1` gave KinaseGlo FLuc 1.6%.
For OC[C@]1(O)OC[C@@H](O)[C@H](O)[C@@H]1O the results were RXFP1 antag -11.0.
Screening CN1CCN(C2Cc3ccccc3Sc3ccc(S)cc32)CC1 (stereo not drawn) returned KinaseGlo FLuc -0.8%[39.9 µM].
Screening COc1ccc2c(c1)CC(N1CCN(C)CC1)c1cc(OC)ccc1S2 (stereo not drawn) returned RXFP1 antag -115.0*.
For Cc1nc(NC2CCCCC2)c2nc(-c3ccccc3)n(CCCN3CCOCC3)c2n1 the results were PKM2 activator 0.0% and KinaseGlo FLuc -7.2%.
Screening Cc1ccc(Cn2c(CNC(=O)c3cccc(C)c3)nc3ccccc32)cc1 returned miR-21 reporter 5.4%, RXFP1 agonist 2.0% and RXFP1 antag -6.8.
Screening O=C(/C=C/c1ccccc1[N+](=O)[O-])c1ccccc1Br returned miR-21 reporter 28.9%, RXFP1 agonist -0.4%, PKM2 activator 18.1%, KinaseGlo FLuc -0.8%, RXFP1 antag -71.8* and GALK inh -0.4%.
Screening CC(C)(C)c1csc(NNC(=O)c2ccc(Cl)cc2)n1 returned miR-21 reporter -1.7%, RXFP1 agonist -0.2%, PKM2 activator -0.1% and RXFP1 antag -95.2*.
Screening COc1ccccc1OCC(=O)NCC1CCCN(Cc2cnn(C(C)C)c2)C1 (stereo not drawn) returned miR-21 reporter 1.1%, RXFP1 agonist 4.2%, PKM2 activator 1.1%, RXFP1 antag -1.2 and GALK inh 4.6%.
For OC(CNC1Cc2ccccc2C1)COc1ccc(Cl)cc1 (stereo not drawn) the results were miR-21 reporter -5.6%, RXFP1 agonist 0.8% and PKM2 activator -2.0%.
Screening OC(CNC1CCCc2ccccc21)COc1c(Cl)cccc1Cl (stereo not drawn) returned miR-21 reporter 7.7%, RXFP1 agonist -1.2%, PKM2 activator -9.0%, KinaseGlo FLuc 2.2%, RXFP1 antag -63.1* and GALK inh 0.7%.
Screening O=C(Nc1ccc(F)c(Cl)c1)N1CCC(CN2CCc3ccccc3C2)CC1 returned miR-21 reporter 0.8%, RXFP1 agonist 2.2% and RXFP1 antag -11.6.
O=C(Nc1nc2ccccc2[nH]1)c1ccc(Cl)cc1 was read as miR-21 reporter inconclusive, RXFP1 agonist 3.0%, PKM2 activator -17.8%, RXFP1 antag -4.7 and GALK inh 0.2%.
`O=C(Nc1nc2ccccc2[nH]1)c1ccccc1` gave miR-21 reporter 20.2%, RXFP1 agonist 2.1%, PKM2 activator -56.6%, KinaseGlo FLuc 11.2µM*, RXFP1 antag 16.9 and GALK inh 2.6%.
Screening CCCNC(=O)CN1C(=O)NC(CC)(c2ccc(F)cc2)C1=O (stereo not drawn) returned miR-21 reporter -0.8%, RXFP1 agonist 0.0%, PKM2 activator 1.5%, RXFP1 antag 0.7 and GALK inh -3.4%.
For CCC1(c2ccc(F)cc2)NC(=O)N(CC(=O)NCC(=O)Nc2cccc(C)c2C)C1=O (stereo not drawn) the results were RXFP1 agonist -0.8% and RXFP1 antag -79.3*.

Fetched by structure from the list above, 4 records:
O=C(NCc1cccs1)C1CCN(S(=O)(=O)c2ccc(Br)s2)CC1 was read as miR-21 reporter -4.5%, RXFP1 agonist 3.3%, PKM2 activator 26.8%, KinaseGlo FLuc -1.0%, RXFP1 antag -5.0 and GALK inh -1.2%.
Screening O=C(/C=C/c1ccccc1[N+](=O)[O-])c1ccccc1Br returned miR-21 reporter 28.9%, RXFP1 agonist -0.4%, PKM2 activator 18.1%, KinaseGlo FLuc -0.8%, RXFP1 antag -71.8* and GALK inh -0.4%.
For CCC1(c2ccc(F)cc2)NC(=O)N(CC(=O)NCC(=O)Nc2cccc(C)c2C)C1=O (stereo not drawn) the results were RXFP1 agonist -0.8% and RXFP1 antag -79.3*.
Screening Cc1ccc(Cn2c(CNC(=O)c3cccc(C)c3)nc3ccccc32)cc1 returned miR-21 reporter 5.4%, RXFP1 agonist 2.0% and RXFP1 antag -6.8.
